Measured values published in paper PMC12631912, “A Multifunctional Molecular Probe for Multimodal Imaging‐Guided Potent Photothermal/Photodynamic Therapy of Endometriosis” (Advanced Science, 2025).

Key:
[1] = test system: Ishikawa cells; experiment: CCK-8 cytotoxicity without laser irradiation; type: cell-based; settings: CCK-8, 24 h incubation, ICG concentration up to 300 µg mL^−1
Description: (§1) The CCK‐8 assay was used to quantitatively assess the viability of Ishikawa cells and EESCs after treatment with cRGD‐ILD or ILD. The cells (1 × 10^4 per well) were seeded in a 96‐well plate, allowed to adhere overnight, and then added to various concentrations of ICG (ranging from 10 to 300 µg mL^−1) in the form of ILD and cRGD‐ILD. After 24 h, the medium was replaced with fresh medium containing 10% CCK‐8 reagent and incubated for an additional 2 h. The absorbance at 450 nm was measured using a Synergy 2 multimode microplate reader (BioTek, USA), with the wells without cells serving as blanks. All experiments were performed in triplicate.

[2] = test system: EESCs; experiment: CCK-8 cytotoxicity without laser irradiation; type: cell-based, human; settings: CCK-8, 24 h incubation, ICG concentration up to 300 µg mL^−1
Description: as §1

Q: What does the source list for ICG‐lys‐DTPA@Gd [ILD]?
A: cell viability without laser irradiation [1]: above 90%; cell viability without laser irradiation [2]: above 90%
